Usually Ki stands for the equilibrium dissociation constant of an inhibitor or competing ligand from its target. A lower Ki goes with higher affinity.

Chains of the proteins cited; added tags and fusions are not shown. Lines headed by an entry give the natural chain unless they say otherwise; changes in a name come on top.
UniProt P37231: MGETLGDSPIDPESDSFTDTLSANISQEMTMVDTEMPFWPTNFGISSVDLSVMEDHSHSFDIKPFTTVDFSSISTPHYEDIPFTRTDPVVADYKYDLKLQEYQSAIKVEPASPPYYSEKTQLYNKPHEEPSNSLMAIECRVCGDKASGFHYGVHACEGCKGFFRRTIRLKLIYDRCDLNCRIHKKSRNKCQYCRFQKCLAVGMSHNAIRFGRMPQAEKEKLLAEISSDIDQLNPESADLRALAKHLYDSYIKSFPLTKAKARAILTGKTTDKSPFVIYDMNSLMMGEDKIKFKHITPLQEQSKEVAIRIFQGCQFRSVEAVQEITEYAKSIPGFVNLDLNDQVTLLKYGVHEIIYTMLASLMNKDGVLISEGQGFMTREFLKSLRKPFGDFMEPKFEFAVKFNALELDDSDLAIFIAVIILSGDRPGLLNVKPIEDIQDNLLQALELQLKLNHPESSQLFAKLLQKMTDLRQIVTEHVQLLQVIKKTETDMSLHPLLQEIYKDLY

The experiment has as its target Peroxisome proliferator-activated receptor gamma (Homo sapiens, UniProt P37231). As to the kind of experiment: ChEBML_1669056.

Consider `O[C@@H]1[C@H](O)CS[C@H]1n1cnc2c(NCc3cccc(I)c3)nc(Cl)nc21` [(2R,3R,4S)-2-(6-(3-iodobenzylamino)-2-chloro-9H-purin-9-yl)-tetrahydrothiophene-3,4-diol], for which the Ki was 3.4 µM.

The values are drawn from BindingDB's records for doi:10.1021/acs.jmedchem.7b00805 (Sahmyook University, 2017).
